# Apparent affinities of Ab-14 variants for a coronavirus HR2 peptide

Binding partner: SARS-CoV-2 spike HR2 peptide, sequence PDVDLGDISGINAS.

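The parent was found by panning a naive human phage display library on the peptide. This is the validation round: designs drawn from the data on random variants, tested in the same kind of assay. Several design methods are mixed in this list. In AlphaSeq, yeast of one mating type display the scFv and yeast of the other type display the target. Pairs that bind mate more often; barcode pairs of the diploids are counted by sequencing. A regression on co-assayed BCL2-family reference pairs converts the normalised counts of each replicate to an apparent Kd. Mating was done six times.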

The variants keep the heavy chain, the linker and the frameworks of Ab-14 (scFv order VH, a 15-residue (Gly4Ser)3 linker, VL).
VH: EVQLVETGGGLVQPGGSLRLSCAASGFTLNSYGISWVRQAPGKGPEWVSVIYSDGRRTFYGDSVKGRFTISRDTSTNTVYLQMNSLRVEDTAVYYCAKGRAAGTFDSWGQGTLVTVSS
VL: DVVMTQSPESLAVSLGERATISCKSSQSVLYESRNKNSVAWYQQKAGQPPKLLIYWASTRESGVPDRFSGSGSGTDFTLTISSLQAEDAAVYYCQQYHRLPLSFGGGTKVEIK

Each variant is given by its three light chain CDRs, as the data file delimits them; those of the parent are KSSQSVLYESRNKNSVA, WASTRES, QQYHRLPLS.
Numbers give log10(Kd / nM), so 0 is 1 nM and 3 is 1 µM. Smaller is tighter.
Replicates are averaged; those with no signal do not enter the mean.
A sequence measured in both rounds can read differently, since the two assays cover different ranges.

2.06 (1 of 6 replicates; controls 0 of 18) for IVSQLMLWGWSAKNSIA / EAVTRYN / QQYDRLPLF.
-0.35 (6 of 6 replicates; controls 1 of 18) for HSSPSVLYESRNFNNVA / NASTRES / QQYHRLPLS.
0.44 (6 of 6 replicates; controls 0 of 18) for MVNGIMDHLSKNTNNVA / ETSTRNS / QQYDRLPLA.
0.28 (6 of 6 replicates; controls 0 of 18) for KLSQSNLYESRNKNSVA / EASTRES / QQYHRLPLS.
0.04 (6 of 6 replicates; controls 0 of 18) for KLYQSVLYESRNKNSVA / NASTRES / QQYHRLPLS.
1.69 (4 of 6 replicates; controls 0 of 18) for MISQLMNLGQFAINSVA / QATIRNA / QQYDRLPLA.
0.78 (6 of 6 replicates; controls 1 of 18) for KSAYSELLESRNCNSVA / SASTREV / QQYHRLPLS.
0.82 (6 of 6 replicates; controls 1 of 18) for VSSQSVLGESRQKNSVA / QASTRES / QQYHRLPLS.
1.38 (6 of 6 replicates; controls 1 of 18) for IVTYAQNDNSLYTNNIA / EGENTLA / QQYFRLPLM.
-0.14 (6 of 6 replicates; controls 0 of 18) for SSSPSESYESRNKNSVA / DASTRES / QQYHRLPLS.
0.02 (6 of 6 replicates; controls 3 of 18) for KFKPSFLYWSRNSNAVA / EASTRES / QQYHRLPLS.
1.78 (1 of 6 replicates; controls 1 of 18) for KSSQSALYESRNKNSVA / WASTRES / QQYHRLPWS.
2.05 (6 of 6 replicates; controls 0 of 18) for VVSGLFQGDEQQYNSIA / EASLSNT / QQYISLPLS.
2.10 (5 of 6 replicates; controls 1 of 18) for KIEQSVLVESRNKNSVA / WASTRES / QQYHRLPLS.
1.09 (6 of 6 replicates; controls 3 of 18) for KSSQSVLDESRNKNSVA / WASTRES / QQYHRLPLI.
0.26 (6 of 6 replicates; controls 0 of 18) for HSSPSVAYESRNKNSVA / EASTRES / QQYHRLPLS.
0.40 (6 of 6 replicates; controls 0 of 18) for KISQLVNFLGKNKNSVA / QMSTREN / QQYDRLPLS.
1.22 (6 of 6 replicates; controls 0 of 18) for KSSQSVLYESRNKNSVA / HASTRED / QQYHRLPLS.
0.33 (6 of 6 replicates; controls 0 of 18) for KISALTMYESVNKNNIA / EMTTRPE / QSYHRLPLS.
-0.49 (6 of 6 replicates; controls 0 of 18) for KSSQSMPYESRNKNSVA / EASTRES / QQYHRLPLS.
-0.33 (6 of 6 replicates; controls 0 of 18) for KLSQQALYESRNKNSVA / QASTREV / QQYHRLPLS.
0.00 (6 of 6 replicates; controls 2 of 18) for FLQGFGENSNRNSKNIA / SKETRQV / QQYMRLPLS.
1.30 (6 of 6 replicates; controls 0 of 18) for KVRQSTLYESRNKNSVA / TASTRES / QQYHRLPLS.
1.62 (6 of 6 replicates; controls 1 of 18) for KSLQSVLEESRNKNSVA / HASTRED / QQYHQLPLS.
0.15 (6 of 6 replicates; controls 3 of 18) for KSSASFLYESRNKNSVA / GASTRES / QQYHRLPLS.
1.07 (6 of 6 replicates; controls 0 of 18) for SLENLTNEQNAYGSNIA / NADVLVY / QQYYRLPIV.
1.54 (6 of 6 replicates; controls 2 of 18) for KVHAYVQGVEQDMQNIA / ETSYASR / QQYFRLPLS.
-0.02 (6 of 6 replicates; controls 0 of 18) for AQSQSVLYESRNKNSVA / DGSTRES / QQYHRLPLS.
1.25 (1 of 6 replicates; controls 0 of 18) for KVFQSVLLESMLVNSVA / YASQRED / QQYHRLPLS.
2.24 (5 of 6 replicates; controls 1 of 18) for KSSQSVLYESRNNNSVA / QASTREY / QQYHRLPLS.
1.94 (6 of 6 replicates; controls 1 of 18) for NLDLFIPSQKEWDASIA / GATLRPT / QDYARLPLS.
-0.25 (6 of 6 replicates; controls 3 of 18) for KVSQSVLYESRNKNNVA / EASTRES / QQYHRLPLS.
2.09 (5 of 6 replicates; controls 1 of 18) for KIEQLVFPMGKDWHSIA / NANTLLA / QQYYYLPLM.
1.83 (6 of 6 replicates; controls 0 of 18) for KITATMRFEQMKKNNIA / EVSMRTK / QQYFRLPLA.
2.20 (5 of 6 replicates; controls 0 of 18) for MISQLYNMGQFAINSVA / QASERNN / QQYDRLPLI.
-0.17 (6 of 6 replicates; controls 0 of 18) for KLAQSVLYESRNKNNVA / EASTRES / QQYHRLPLS.
-0.25 (6 of 6 replicates; controls 2 of 18) for KFSQSMLYESRNKNSVA / DASTRES / QQYHRLPLS.
1.27 (1 of 6 replicates; controls 0 of 18) for KLNSDSVLQWNINNSVA / EHSEVVQ / QQYVHLPLM.
0.96 (6 of 6 replicates; controls 0 of 18) for KLTMITGLEKVSKNQVA / EMETREQ / QQYNRLPLS.
1.98 (3 of 6 replicates; controls 1 of 18) for MLSQMWALGAKVKNSVA / QASMRFN / QQYDRLPLI.
0.00 (6 of 6 replicates; controls 2 of 18) for KLSQSMLYESRNKNSVA / EASTRMS / QQYHRLPLS.
0.27 (6 of 6 replicates; controls 3 of 18) for KSSQSVEYESDNKNSVA / AASTRES / QQYHRLPLS.
1.22 (6 of 6 replicates; controls 0 of 18) for KSSQSELYESRNKNSVA / GASSRES / QQYHRLPLS.

The authors averaged sequences with at least three values out of six and counted those with two or fewer as poor binders.
Background: pairings of all light chain designs with three empty control strains gave a value in 4% of cases (median 2.64, 5th percentile 1.59). Values in that range, when seen in few replicates, are hard to tell from nonspecific mating. For each scFv, signals with the empty controls are counted beside the result.

From the AlphaSeq antibody data of Li et al. 2023 (doi:10.1038/s41467-023-39022-2), copy in the FLAb collection.